Results taken from PubChem BioAssay AID2553 (Johns Hopkins Ion Channel Center, 2010).
Only a part is listed here, and it is no random draw. Calls of active or inactive are those of the source.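 The calls were made as follows: active = B-score under library mean minus 3 SD, initial fluorescence not abnormally high, positive integrated signal ratio; inactive = the rest.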

Chains of the proteins cited; added tags and fusions are not shown. Lines headed by an entry give the natural chain unless they say otherwise; changes in a name come on top.
UniProt Q61143: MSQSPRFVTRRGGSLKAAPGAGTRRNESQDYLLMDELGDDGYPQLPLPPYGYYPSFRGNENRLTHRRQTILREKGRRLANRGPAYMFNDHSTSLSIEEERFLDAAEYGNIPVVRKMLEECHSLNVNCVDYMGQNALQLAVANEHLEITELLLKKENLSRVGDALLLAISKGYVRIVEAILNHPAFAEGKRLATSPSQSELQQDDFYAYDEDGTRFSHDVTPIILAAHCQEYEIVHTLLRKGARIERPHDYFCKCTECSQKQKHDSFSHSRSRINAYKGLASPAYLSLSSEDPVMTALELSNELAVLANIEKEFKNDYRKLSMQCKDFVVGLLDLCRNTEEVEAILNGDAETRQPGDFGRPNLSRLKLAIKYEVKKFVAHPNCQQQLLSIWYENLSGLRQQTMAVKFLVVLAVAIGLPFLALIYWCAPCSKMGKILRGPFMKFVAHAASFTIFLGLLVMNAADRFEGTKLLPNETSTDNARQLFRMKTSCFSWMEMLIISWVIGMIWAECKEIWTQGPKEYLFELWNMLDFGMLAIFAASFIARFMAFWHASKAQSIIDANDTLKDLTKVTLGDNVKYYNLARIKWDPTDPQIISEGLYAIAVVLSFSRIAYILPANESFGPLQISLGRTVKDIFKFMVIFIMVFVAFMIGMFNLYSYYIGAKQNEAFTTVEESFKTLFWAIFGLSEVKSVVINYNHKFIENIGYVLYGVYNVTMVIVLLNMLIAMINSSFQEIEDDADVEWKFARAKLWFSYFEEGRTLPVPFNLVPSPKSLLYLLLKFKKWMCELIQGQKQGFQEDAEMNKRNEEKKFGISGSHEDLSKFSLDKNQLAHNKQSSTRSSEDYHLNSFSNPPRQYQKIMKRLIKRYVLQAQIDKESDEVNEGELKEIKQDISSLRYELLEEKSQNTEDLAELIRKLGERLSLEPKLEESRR

The compounds below were run against Short transient receptor potential channel 6 (Mus musculus) (UniProt Q61143) (assay: mouse TRPC6 channel inhibitors, primary screen, cell-based, HEK293, membrane potential dye (AID 2553;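 also: B-score derived from integrated fluorescence ratio over the kinetic read; more negative B-score means stronger inhibition of depolarization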)). Settings: ACh-evoked depolarization, at 10 µM, hits give low values.
For `CN1CCCC(OC(=O)C(c2ccccc2)c2ccccc2)C1` (centres undefined), the B-score was active: -7.8. With `O=[N+]([O-])c1ccc(O)c(/C=N/Nc2ccc([N+](=O)[O-])cc2[N+](=O)[O-])c1` the B-score was active: -7.02. `CCC1=CC2Cc3nc4ccc(Cl)cc4c(N)c3C(C1)C2` (centres undefined) was tested, and the B-score was active: -9.34. `O=C(OC1CN2CCC1CC2)C12CC3CC(CC(C3)C1)C2` (centres undefined) was tested, and the B-score was active: -6.46.
